Drawing on publication PMC11432405, “Development of Novel Alaninamide Derivatives with Anticonvulsant Activity and Favorable Safety Profiles in Animal Models” (International Journal of Molecular Sciences, 2024), this text covers inhibition for one molecule.

Amino acid sequences for entries named in this document (tags omitted).
UniProt P27338, whole entry: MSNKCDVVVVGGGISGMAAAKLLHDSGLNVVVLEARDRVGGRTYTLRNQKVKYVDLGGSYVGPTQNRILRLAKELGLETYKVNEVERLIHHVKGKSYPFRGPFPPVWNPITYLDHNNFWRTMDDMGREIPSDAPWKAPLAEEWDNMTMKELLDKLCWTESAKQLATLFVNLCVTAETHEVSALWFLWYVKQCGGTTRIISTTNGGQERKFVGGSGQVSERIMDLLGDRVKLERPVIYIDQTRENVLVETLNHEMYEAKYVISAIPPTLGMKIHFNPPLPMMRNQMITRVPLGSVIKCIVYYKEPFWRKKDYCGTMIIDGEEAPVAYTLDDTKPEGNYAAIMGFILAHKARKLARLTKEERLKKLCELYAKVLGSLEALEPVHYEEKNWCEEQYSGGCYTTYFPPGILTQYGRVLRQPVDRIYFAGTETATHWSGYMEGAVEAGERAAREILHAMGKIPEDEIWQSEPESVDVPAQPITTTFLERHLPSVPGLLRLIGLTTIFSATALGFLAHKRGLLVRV

In the assay the target is human recombinant MAO-B (Homo sapiens, UniProt P27338). Briefly: fluorometric monoamine oxidase B inhibition assay. The note with it: read-out: % inhibition MAO-B (1 µM).

For `C[C@H](NCc1ccc(OCc2cccc(F)c2)cc1)C(N)=O` [SAF, safinamide, reference compound], the inhibition at 1 µM came to 100%.
